Reference: patent publication US20250361273A1, “METHODS AND COMPOSITIONS” (priority 2024, published 2025)

Amino acid sequences for entries named in this document (tags omitted). A change or cut given only in a name is not applied to a line headed by its entry.
UniProt Q01726: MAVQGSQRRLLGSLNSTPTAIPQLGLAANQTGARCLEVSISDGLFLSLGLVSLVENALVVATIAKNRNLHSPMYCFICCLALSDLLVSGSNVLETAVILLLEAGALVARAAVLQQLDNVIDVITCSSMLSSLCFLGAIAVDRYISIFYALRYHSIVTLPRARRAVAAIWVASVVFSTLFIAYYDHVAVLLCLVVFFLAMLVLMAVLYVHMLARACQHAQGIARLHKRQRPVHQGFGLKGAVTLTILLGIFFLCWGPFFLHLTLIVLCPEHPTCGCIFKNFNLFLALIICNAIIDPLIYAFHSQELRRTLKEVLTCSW

Target: MC1R (Homo sapiens, UniProt Q01726)
Test: cAMP assay (human receptors), DiscoverX HitHunter, MC1R
Details: read-out: MC1R EC50, HEK293

a-MSH
EC50: 2.39 nM
